This test concerns the target T1, dopamine D2 receptor (D2R) (Homo sapiens, UniProt P14416).
T1 construct: gene DRD2; D2R in non-purified membrane fragments of induced HekD2 cells
The test is described as follows: MST saturation binding with fluorescent ligand on cell membrane fragments, non-specific binding subtracted.

Chains of the proteins cited; added tags and fusions are not shown. Lines headed by an entry give the natural chain unless they say otherwise; changes in a name come on top.
UniProt P14416, whole entry: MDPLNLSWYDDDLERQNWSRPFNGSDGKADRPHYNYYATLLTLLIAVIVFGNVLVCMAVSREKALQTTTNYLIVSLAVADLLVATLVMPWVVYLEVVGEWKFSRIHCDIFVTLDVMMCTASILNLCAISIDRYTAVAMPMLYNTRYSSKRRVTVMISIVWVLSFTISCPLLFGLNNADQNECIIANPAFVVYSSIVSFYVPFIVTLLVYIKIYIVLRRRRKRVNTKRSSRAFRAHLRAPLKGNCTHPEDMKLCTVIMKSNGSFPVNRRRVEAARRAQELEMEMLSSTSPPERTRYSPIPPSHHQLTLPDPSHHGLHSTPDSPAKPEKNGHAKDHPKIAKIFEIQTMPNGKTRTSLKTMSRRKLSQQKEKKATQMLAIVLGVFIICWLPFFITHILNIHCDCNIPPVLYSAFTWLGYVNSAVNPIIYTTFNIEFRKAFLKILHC

spiperone—Cy5 yielded a Kd of 5.3 ± 1.7 nM.

For orientation: Kd means the free concentration of one partner at which half of the binding sites on the other are occupied at equilibrium, for simple one-to-one binding. A higher Kd goes with weaker binding.

These data come from publication PMC8967833, “An original approach to measure ligand/receptor binding affinity in non-purified samples” (Scientific Reports, 2022).
